Measurements as given in US9173938B2, “Combination of a purine-based CDK inhibitor with a tyrosine kinase inhibitor and use thereof in the treatment of proliferative disorders” (Cyclacel Limited, priority 2007, dated 2015).

Assays:
Type in all cases: cell-based
MCF7 cells = experiment: Cell growth (alamar blue); details: 1-100 nM, data not shown
HER2 = experiment: Western blot of SkBr3 cell lysates; details: SkBr3 cells, 24 h
cyclin D1 = experiment: Western blot of SkBr3 cell lysates; details: SkBr3 cells, 24 h

With “trastuzumab: recombinant DNA-derived humanized monoclonal antibody (IgG1 kappa) that binds the extracellular domain of HER2” the effect on proliferation (MCF7 cells) was “no significant effect”, the HER2 levels (HER2) was “modest effect” and the “cyclin D1 levels” value (cyclin D1) was “no apparent effect”.
